The target of assay [1] is T1, purified human C1q (human, UniProt P02745 23-245; P02746 28-253; P02747 29-245). In words: cell-based or functional assay.
For assay [2], the target named is T1, purified human C1q. In words: C1q binding ELISA: plate coated with 1 µg/mL antibody, purified C1q titrated; SD 12.2, n 3.

By UniProt entry, the sequences of proteins in these tests, tags left out. Residues count along the entry.
UniProt P02745, 23-245 limits assumed, chain 1 of 3: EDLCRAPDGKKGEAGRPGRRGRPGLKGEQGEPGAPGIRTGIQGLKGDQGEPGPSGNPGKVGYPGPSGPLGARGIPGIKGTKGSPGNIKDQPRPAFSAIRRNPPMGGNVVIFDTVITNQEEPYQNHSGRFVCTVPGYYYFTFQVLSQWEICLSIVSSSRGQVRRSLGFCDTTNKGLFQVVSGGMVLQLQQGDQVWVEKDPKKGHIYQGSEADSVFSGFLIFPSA
purified human C1q, UniProt P02746, 28-253 limits assumed, chain 2 of 3: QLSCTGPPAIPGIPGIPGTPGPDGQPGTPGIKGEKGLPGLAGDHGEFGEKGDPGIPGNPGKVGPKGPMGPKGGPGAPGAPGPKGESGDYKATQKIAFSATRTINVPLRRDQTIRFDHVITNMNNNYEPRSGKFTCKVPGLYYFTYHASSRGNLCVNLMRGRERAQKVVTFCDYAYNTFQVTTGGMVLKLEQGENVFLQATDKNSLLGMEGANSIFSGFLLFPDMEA
purified human C1q, UniProt P02747, 29-245 limits assumed, chain 3 of 3: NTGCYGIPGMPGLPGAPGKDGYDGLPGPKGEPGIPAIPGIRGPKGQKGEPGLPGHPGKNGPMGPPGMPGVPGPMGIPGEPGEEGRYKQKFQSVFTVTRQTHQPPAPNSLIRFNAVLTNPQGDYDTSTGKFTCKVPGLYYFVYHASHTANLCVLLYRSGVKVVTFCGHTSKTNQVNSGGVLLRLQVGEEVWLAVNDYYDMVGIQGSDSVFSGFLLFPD

Consider one molecule from patent publication US20200181277A1 (Genmab, published 2020).

B1: IgG1-CONA-C49W (antibody)
heavy: not shown
light: EIVLTQSPGTLSLSPGERATLSCRASQGISRSYLAWYQQKPGQAPSLLIYGASSRATGIPDRFSGSGSGTDFTLTISRLEPEDFAVYYCQQFGSSPWTFGQGTKVEIKRTVAAPSVFIFPPSDEQLKSGTASVVCLLNNFYPREAKVQWKVDNALQSGNSQESVTEQDSKDSTYSLSSTLTLSKADYEKHKVYACEVTHQGLSSPVTKSFNRGEC
With B1, in the assay with purified human C1q [1], the “C1q EC90 (µg/mL), viability assay on WIL2-S SF cells” value was over 2.5 µg/mL. In the assay with purified human C1q [2], this molecule yielded an EC50 of 15.2 mg/L.
